Measured affinities in a library of Ab-91 heavy chain variants

From the AlphaSeq antibody data of Engelhart et al. 2022 (doi:10.1038/s41597-022-01779-4), copy in the FLAb collection.

Target peptide (SARS-CoV-2 spike, HR2 region): PDVDLGDISGINAS

Ab-91 is the parent antibody, in scFv form: VL, then three GGGGS repeats, then VH. The light chain is unchanged in all variants.
VL: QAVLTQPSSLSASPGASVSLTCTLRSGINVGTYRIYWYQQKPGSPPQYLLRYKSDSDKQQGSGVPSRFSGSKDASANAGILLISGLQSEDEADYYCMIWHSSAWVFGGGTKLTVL
VH: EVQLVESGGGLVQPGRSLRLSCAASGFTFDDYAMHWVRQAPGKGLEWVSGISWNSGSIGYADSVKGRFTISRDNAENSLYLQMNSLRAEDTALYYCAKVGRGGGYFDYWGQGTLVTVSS

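Library AAYL51 holds single substitutions and randomly drawn double and triple substitutions in the CDRs. In AlphaSeq, yeast of one mating type display the scFv and yeast of the other type display the target. The frequency of each diploid, read from paired DNA barcodes, reflects how well the two displayed proteins bind. A regression on co-assayed BCL2-family reference pairs converts the normalised counts of each replicate to an apparent Kd. Mating was done three times.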

Positions count from residue 1 of the parent VH; M34R puts R in place of M.
Numbers give log10(Kd / nM), so 0 is 1 nM and 3 is 1 µM. Smaller is tighter.
The mean shown is taken over the replicates in which the pair was detected.
"nd" marks a missing value. The strain was present, yet no cells mated with the target were sequenced in that replicate, which points to weak or no binding.

changes	replicates, log10 nM	mean, log10 nM	empty controls
M34R/R101I/G104M	3.91 nd 3.20	3.55	3 of 9 (4.08)
S57Q/D62Y/S63L	nd nd nd	nd	1 of 9 (3.20)
Y32P/G100M/Y105M	4.23 5.41 nd	4.82	2 of 9 (4.05)
D31M/S52P/W53Y	3.83 4.75 nd	4.29	0 of 9
T28P/D62R/G102V	5.36 nd 2.53	3.95	2 of 9 (3.80)
F27H/D31S	4.31 4.57 5.72	4.86	3 of 9 (4.93)
H35I/I58V/F106E	nd nd nd	nd	2 of 9 (3.00)
I58W/Y60E/D107I	nd nd nd	nd	0 of 9
S52A/S55K/F106K	5.02 4.35 5.70	5.02	8 of 9 (5.30)
H35K/S52C/R101G	nd nd nd	nd	1 of 9 (3.61)
I51D/D62N/G104A	nd 3.38 nd	3.38	3 of 9 (4.01)
A33R/G59P/Y108V	nd nd nd	nd	2 of 9 (4.34)
G50D/S52G/Y108V	nd nd nd	nd	0 of 9
S52T/G56Q/V99Y	nd nd nd	nd	2 of 9 (4.28)
D31C/S55C/G104P	3.27 nd 3.86	3.57	1 of 9 (4.67)
I51M/Y60L/Y105M	nd 5.19 3.76	4.47	2 of 9 (4.18)
S52M/W53E/G104M	nd nd 3.19	3.19	1 of 9 (2.43)
F29D/V99M/R101H	4.82 4.25 nd	4.53	3 of 9 (4.04)
M34V/H35N/G100Q	nd nd nd	nd	0 of 9
G26N/Y32T/H35M	4.83 4.55 nd	4.69	5 of 9 (4.81)
G26I/W53T	nd nd nd	nd	0 of 9
I51M/A61Y/D107Q	nd nd nd	nd	0 of 9
D30E/G102D/D107C	1.12 1.17 0.76	1.02	2 of 9 (4.45)
F29C/S52L/D107C	nd 5.32 nd	5.32	3 of 9 (3.76)
F29K/N54I/V99T	nd nd nd	nd	0 of 9
Y32K/V64R/F106Q	nd nd nd	nd	1 of 9 (4.37)
S57Y/A61R/V99F	nd nd nd	nd	1 of 9 (3.78)
M34Y/W53G/Y105V	3.09 nd nd	3.09	0 of 9
H35V/K65Q/G102K	4.85 nd 4.16	4.51	2 of 9 (3.71)
G26K/D30Y/V99T	nd nd 5.23	5.23	1 of 9 (3.81)
N54H/V99S/Y108A	4.84 6.69 5.32	5.62	6 of 9 (4.93)
W53T/S57P/F106W	nd nd nd	nd	0 of 9
D30I/S57E/G102C	3.84 nd 4.46	4.15	1 of 9 (4.75)
T28W/H35R	4.44 nd nd	4.44	4 of 9 (4.98)
A33N/H35Q/D62F	nd 5.18 nd	5.18	4 of 9 (5.05)
T28G/V64L/Y108A	4.72 nd nd	4.72	2 of 9 (4.53)
G56Y/S57L	1.91 1.91 1.56	1.80	2 of 9 (4.57)
T28H/Y105L	1.07 0.56 -0.20	0.48	0 of 9
F27P/G56H/S63V	2.59 nd 3.58	3.09	2 of 9 (3.59)
Y32K/N54I/G102C	nd nd nd	nd	0 of 9
M34T/I51T/G103F	nd nd nd	nd	0 of 9

Background: pairings of library AAYL51 with three empty control strains gave a value in 21% of cases (median 4.54, 5th percentile 3.26). Values in that range, when seen in few replicates, are hard to tell from nonspecific mating. The control count says in how many pairings with the empty strains this scFv gave a signal, with their mean in brackets.
For reference, the parent read 1.86 as the reference entry and 0.88 as a member of this library.